# System: SOD1^G93A mice
# Test: In vivo ALS model muscle physiology study with 2A10 and riluzole
# Parameters: species or system mouse
# Details: 30 mg/kg (2A10 HA weekly i.p.; riluzole in drinking water from day 65), vs SOD-B vehicle
# Experimental: Fresh solutions were prepared once a week with the total consumed volume measured in order to ensure a constant daily and weekly dose.
smiles,measurement,value
"Nc1nc2ccc(OC(F)(F)F)cc2s1 [Riluzole, 2-Amino-6-(trifluoromethoxy)benzothiazole]","EDL motor unit number estimation (MUNE), high dose",clearly efficacious

# Reference: patent US20110268729A1, “TREATMENT OF AMYOTROPHIC LATERAL SCLEROSIS BY NOGO-A-ANTAGONIST” (priority 2008, published 2011)
